Test results from PMC10954796, “Post-translational modifications of beta-amyloid alter its transport in the blood-brain barrier in vitro model” (Frontiers in Molecular Neuroscience, 2024).

Protein sequences, listed by entry. Tags and fused reporters are not part of them. Residues count along the entry.
UniProt Q15109, 23-342 limits assumed: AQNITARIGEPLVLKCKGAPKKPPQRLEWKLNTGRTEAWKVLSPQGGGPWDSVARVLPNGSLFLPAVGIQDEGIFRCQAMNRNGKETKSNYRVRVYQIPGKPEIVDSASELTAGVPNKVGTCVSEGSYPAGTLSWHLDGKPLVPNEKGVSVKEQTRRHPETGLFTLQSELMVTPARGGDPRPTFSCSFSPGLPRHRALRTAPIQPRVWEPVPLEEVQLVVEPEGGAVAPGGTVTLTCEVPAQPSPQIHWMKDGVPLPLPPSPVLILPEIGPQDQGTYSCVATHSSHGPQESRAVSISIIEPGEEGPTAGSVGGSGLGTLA

Biological target: T1, sRAGE (Homo sapiens, UniProt Q15109)
T1 construct: the soluble extracellular part of RAGE (sRAGE); purchased Abcam
Assay: Microscale thermophoresis, interaction with sRAGE
Format: binding
Conditions: MST; 50 nM labeled sRAGE; peptide dissolved in PBS, 38.1 nM to 1.25 mM; 4% DMSO, 20% glycerol

CC(C)[C@H](NC(=O)[C@H](CCC(=O)O)NC(=O)[C@H](Cc1ccc(O)cc1)NC(=O)CNC(=O)[C@H](CO)NC(=O)[C@H](CC(=O)O)NC(=O)[C@H](Cc1c[nH]cn1)NC(=O)[C@H](CCCNC(=N)N)NC(=O)[C@H](Cc1ccccc1)NC(=O)[C@H](CCC(=O)O)NC(=O)[C@H](C)NC(=O)[C@@H](N)CC(=O)O)C(=O)N[C@@H](Cc1c[nH]cn1)C(=O)N[C@@H](Cc1c[nH]cn1)C(=O)N[C@@H](CCC(N)=O)C(=O)N[C@@H](CCCCN)C(=O)O [Aβ1 − 16]
interaction with sRAGE: not detected
